Assays:
[1] = target: STAT6 (Homo sapiens, UniProt P42226); assay: STAT6 MSD degradation in A549 cells; settings: for DC50: read-out: STAT6 MSD degradation DC50 (nM) 24 h
Summary of the method: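 A549 cells treated with a 9-point 1:3 series (top up to 10 uM) for 4 to 24 hours at 37° C., then lysed in RIPA. STAT6 quantified by sandwich MSD electrochemiluminescence immunoassay. DC50 and Dmax from four-parameter nonlinear fit, reported as letter-code bins.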

Protein sequences, listed by entry. Tags and fused reporters are not part of them. Residues count along the entry.
UniProt P42226, whole entry: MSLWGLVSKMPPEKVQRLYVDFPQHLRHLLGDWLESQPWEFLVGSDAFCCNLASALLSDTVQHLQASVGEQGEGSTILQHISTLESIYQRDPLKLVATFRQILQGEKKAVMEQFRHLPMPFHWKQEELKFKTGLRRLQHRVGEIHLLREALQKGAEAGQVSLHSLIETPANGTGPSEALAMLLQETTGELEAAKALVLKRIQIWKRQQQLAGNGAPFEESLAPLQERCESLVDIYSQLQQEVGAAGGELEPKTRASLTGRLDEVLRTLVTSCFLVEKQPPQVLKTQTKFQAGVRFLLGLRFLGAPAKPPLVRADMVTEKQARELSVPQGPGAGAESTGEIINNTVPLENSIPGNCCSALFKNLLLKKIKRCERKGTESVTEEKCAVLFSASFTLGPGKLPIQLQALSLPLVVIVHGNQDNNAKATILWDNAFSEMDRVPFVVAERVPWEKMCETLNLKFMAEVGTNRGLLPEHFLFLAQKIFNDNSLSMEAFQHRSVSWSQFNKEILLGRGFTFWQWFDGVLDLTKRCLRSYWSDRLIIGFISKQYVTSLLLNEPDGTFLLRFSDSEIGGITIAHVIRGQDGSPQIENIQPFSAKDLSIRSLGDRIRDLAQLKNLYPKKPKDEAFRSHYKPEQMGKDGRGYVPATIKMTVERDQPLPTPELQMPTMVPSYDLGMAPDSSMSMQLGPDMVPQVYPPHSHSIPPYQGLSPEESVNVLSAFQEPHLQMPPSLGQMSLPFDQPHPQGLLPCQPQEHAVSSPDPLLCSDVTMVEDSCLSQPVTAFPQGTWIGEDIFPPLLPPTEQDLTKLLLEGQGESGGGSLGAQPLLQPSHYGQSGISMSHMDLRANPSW
UniProt P42226, 123-632 limits assumed: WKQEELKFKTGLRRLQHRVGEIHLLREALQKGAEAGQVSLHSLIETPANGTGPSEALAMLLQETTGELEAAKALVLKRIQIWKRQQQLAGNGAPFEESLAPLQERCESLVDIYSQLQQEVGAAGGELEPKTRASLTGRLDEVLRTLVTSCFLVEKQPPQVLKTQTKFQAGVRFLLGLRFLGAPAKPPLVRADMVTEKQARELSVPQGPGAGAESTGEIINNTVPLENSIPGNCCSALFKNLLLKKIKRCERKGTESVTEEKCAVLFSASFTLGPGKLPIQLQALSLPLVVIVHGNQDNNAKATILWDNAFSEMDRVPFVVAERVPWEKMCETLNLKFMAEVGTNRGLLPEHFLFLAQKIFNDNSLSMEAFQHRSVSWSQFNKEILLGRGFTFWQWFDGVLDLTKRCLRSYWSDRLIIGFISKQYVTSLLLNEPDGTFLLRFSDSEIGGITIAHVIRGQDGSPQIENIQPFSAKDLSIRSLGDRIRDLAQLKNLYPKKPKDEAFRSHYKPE

[2] = target: biotinylated truncated STAT6 (123-632)-avi (Homo sapiens, UniProt P42226); assay: STAT6 HTRF binding assay; settings: read-out: STAT6 HTRF: Average IC50; HTRF binding, 0.15 nM biotinylated truncated STAT6 (123-632)-avi, 20 nM fluorescein-labeled probe
[3] = target: STAT6-HiBiT (Homo sapiens, UniProt P42226); assay: STAT6 HiBiT degradation in A549 (STAT6-HiBiT) cells; settings: for DC50: read-out: STAT6 HiBiT degradation DC50 (nM) 24 h
Procedure: Degradation of STAT6 in endogenously tagged STAT6-HiBiT A549 cells was quantitatively measured using the Nano-Glo HiBiT Lytic Detection System (Promega, 3040). A549 (STAT6-HiBiT) cells were seeded in 384-well plates with a density of 1.25k cells per well in 20 μl fresh media. Compounds were then added to the assay plates using the Apricot S3 with a final top concentration of up to 10 uM in a 4-fold dilution series with total of 10 doses. The assay plates were then incubated for 24 hours at 37° C. under 5% CO2. At the assay endpoint, 20 μL of Nano-Glo HiBiT Lytic Reagent was added to each well and agitated on a plate shaker at 300 rpm for 10 minutes at room temperature. Luminescence was read on PHERAStar FSX Instrument (Is integration time). The data was analyzed by GraphPad Prism and the dose dependent STAT6 degradation was fit using the four-parameter inhibitor vs. response nonlinear regression.
The letter codes for DC50 (nM) include: A (<1 nM): B (1-10 nM); C (>10-100 nM); D (>100-1000 nM); E (>1000 nM); and F (not tested). The letter codes for Dmax (%) include: A (>90%); B (>70-90%); C (>50-70%); D (<50%); and E (not tested).

Cc1nn(C2CCC(=O)NC2=O)c2cccc(CCN3CC[C@H](c4cc(Cl)c(-c5cc(C6=CCCN(C(=O)CCn7cccn7)C6)c(F)c6[nH]c(C(=O)N(C)C)cc56)cc4F)C(F)(F)C3)c12 (stereo partly shown)
STAT6 MSD degradation Dmax % 24 h [1]: A (A (>90%)) | DC50 [1]: < 1 nM | IC50 [2]: < 100 nM | STAT6 HiBiT degradation Dmax % 24 h [3]: A (A (>90%)) | DC50 [3]: < 1 nM

Cc1nn(C2CCC(=O)NC2=O)c2cccc(CCN3CC[C@H](c4cc(F)c(-c5cc(C6=CCCN(C(=O)CCn7cccn7)C6)c(F)c6[nH]c(C(=O)N(C)C)cc56)cc4F)C(F)(F)C3)c12 (stereo partly shown)
STAT6 MSD degradation Dmax % 24 h [1]: A (A (>90%)) | DC50 [1]: < 1 nM | IC50 [2]: < 100 nM | STAT6 HiBiT degradation Dmax % 24 h [3]: A (A (>90%)) | DC50 [3]: < 1 nM

CN(C)C(=O)c1cc2c(-c3ccc(N4CCN(c5ncc(C6CCC(=O)NC6=O)cc5F)CC4)c(F)c3F)cc(C3=CCCN(C(=O)CCn4cccn4)C3)c(F)c2[nH]1 (stereo not shown)
STAT6 MSD degradation Dmax % 24 h [1]: A (A (>90%)) | DC50 [1]: < 1 nM | IC50 [2]: < 100 nM | STAT6 HiBiT degradation Dmax % 24 h [3]: B (B (>70-90%)) | DC50 [3]: < 1 nM

CN(C)C(=O)c1cc2c(-c3ccc(C4CCN(c5ccc(C6CCC(=O)NC6=O)c(F)c5)CC4)cc3)cc(C3=CCCN(C(=O)CCn4cccn4)C3)c(F)c2[nH]1 (stereo not shown)
STAT6 MSD degradation Dmax % 24 h [1]: A (A (>90%)) | DC50 [1]: < 1 nM | IC50 [2]: < 100 nM | STAT6 HiBiT degradation Dmax % 24 h [3]: A (A (>90%)) | DC50 [3]: < 1 nM

CC(C)C(=O)N1CCC=C(c2cc(-c3ccc(N4CCN(CCc5cccc6c(C7CCC(=O)NC7=O)nn(C)c56)[C@@H](C)C4)cc3F)c3cc(C(=O)N(C)C)[nH]c3c2F)C1 (stereo partly shown)
STAT6 MSD degradation Dmax % 24 h [1]: A (A (>90%)) | DC50 [1]: 1 to 10 nM | IC50 [2]: 1000 to 10000 nM | STAT6 HiBiT degradation Dmax % 24 h [3]: A (A (>90%)) | DC50 [3]: 1 to 10 nM

CN(C)C(=O)c1cc2c(-c3cc(F)c(N4CCN(c5ccc(C6CCC(=O)NC6=O)cc5F)CC4)cc3F)cc(C3=CCCN(C(=O)CCn4ccnn4)C3)c(F)c2[nH]1 (stereo not shown)
STAT6 MSD degradation Dmax % 24 h [1]: B (B (>70-90%)) | DC50 [1]: < 1 nM | IC50 [2]: < 100 nM | STAT6 HiBiT degradation Dmax % 24 h [3]: A (A (>90%)) | DC50 [3]: < 1 nM

Cc1cc(C2CCN(c3cccc4c(C5CCC(=O)NC5=O)nn(C)c34)CC2)ccc1-c1cc(C2=CCCN(C(=O)CCn3cccn3)C2)c(F)c2[nH]c(C(=O)N(C)C)cc12 (stereo not shown)
STAT6 MSD degradation Dmax % 24 h [1]: A (A (>90%)) | DC50 [1]: 1 to 10 nM | IC50 [2]: 100 to 1000 nM | STAT6 HiBiT degradation Dmax % 24 h [3]: A (A (>90%)) | DC50 [3]: < 1 nM

CN(C)C(=O)c1cc2c(-c3ccc(N4CCN(c5ccc(C6CCC(=O)NC6=O)cc5F)CC4)c(F)c3F)cc(C3=CCCN(C(=O)CCn4ccnn4)C3)c(F)c2[nH]1 (stereo not shown)
STAT6 MSD degradation Dmax % 24 h [1]: A (A (>90%)) | DC50 [1]: 1 to 10 nM | IC50 [2]: < 100 nM | STAT6 HiBiT degradation Dmax % 24 h [3]: A (A (>90%)) | DC50 [3]: < 1 nM

CN(C)C(=O)c1cc2c(-c3ccc(C4CCN(c5ccc(C6CCC(=O)NC6=O)cc5Cl)CC4)cc3)cc(C3=CCCN(C(=O)CCn4cccn4)C3)c(F)c2[nH]1 (stereo not shown)
IC50 [2]: 100 to 1000 nM | STAT6 HiBiT degradation Dmax % 24 h [3]: A (A (>90%)) | DC50 [3]: < 1 nM

CN(C)C(=O)c1cc2c(-c3ccc(N4CCN([C@@H]5CCN(c6ccc(C7CCC(=O)NC7=O)cc6F)CC5(F)F)CC4)c(F)c3F)cc(C3=CCCN(C(=O)CCn4ccnn4)C3)c(F)c2[nH]1 (stereo partly shown)
IC50 [2]: < 100 nM | STAT6 HiBiT degradation Dmax % 24 h [3]: A (A (>90%)) | DC50 [3]: < 1 nM

CN(C)C(=O)c1cc2c(-c3cc(F)c(N4CCN(CCc5cccc6c5C5(CC5)C(=O)N6C5CCC(=O)NC5=O)CC4)cc3Cl)cc(C3=CCCN(C(=O)CCn4cccn4)C3)c(F)c2[nH]1 (stereo not shown)
IC50 [2]: < 100 nM | STAT6 HiBiT degradation Dmax % 24 h [3]: A (A (>90%)) | DC50 [3]: < 1 nM

CN(C)C(=O)c1cc2c(-c3ccc(C4CCN(c5ccc(C6CCC(=O)NC6=O)cc5F)CC4)cc3F)cc(C3=CCCN(C(=O)CCn4ccnn4)C3)c(F)c2[nH]1 (single isomer, unassigned)
IC50 [2]: < 100 nM | STAT6 HiBiT degradation Dmax % 24 h [3]: A (A (>90%)) | DC50 [3]: < 1 nM

CN(C)C(=O)c1cc2c(-c3ccc(N4CCC(N5CCC(N(C)c6ccc(Cl)c(N7CCC(=O)NC7=O)c6)CC5)CC4)cc3)cc(C3=CCCN(C(=O)CCn4cccn4)C3)c(F)c2[nH]1
IC50 [2]: < 100 nM | STAT6 HiBiT degradation Dmax % 24 h [3]: A (A (>90%)) | DC50 [3]: < 1 nM

CN(C(=O)c1cc2c(-c3ccc(C4CCN(c5ccc(C6CCC(=O)NC6=O)cc5F)CC4)cc3)cc(C3=CCCN(C(=O)CCn4ccnn4)C3)c(F)c2[nH]1)C1CC1 (stereo not shown)
IC50 [2]: < 100 nM | STAT6 HiBiT degradation Dmax % 24 h [3]: A (A (>90%)) | DC50 [3]: < 1 nM

CN(C)C(=O)c1cc2c(-c3ccc(C4CCN(CCc5cccc6c5C(C)(C)C(=O)N6C5CCC(=O)NC5=O)CC4)c(F)c3F)cc(C3=CCCN(C(=O)CCn4cccn4)C3)c(F)c2[nH]1 (stereo not shown)
IC50 [2]: < 100 nM | STAT6 HiBiT degradation Dmax % 24 h [3]: A (A (>90%)) | DC50 [3]: < 1 nM

Cc1cc(C2CCN(c3cccc4c3C(C)(C)C(=O)N4C3CCC(=O)NC3=O)CC2)ccc1-c1cc(C2=CCCN(C(=O)[C@H](C)Cn3cccn3)C2)c(F)c2[nH]c(C(=O)N(C)C)cc12 (stereo partly shown)
IC50 [2]: 10000 to 100000 nM | STAT6 HiBiT degradation Dmax % 24 h [3]: B (B (>70-90%)) | DC50 [3]: 10 to 100 nM

CN(C)C(=O)c1cc(-c2ccc(C3CCN(c4ncc(C5CCC(=O)NC5=O)cc4F)CC3)cc2)c2c(c1)cc(C1=CCCN(C(=O)CCn3cccn3)C1)n2CC1CC1 (stereo not shown)
IC50 [2]: 100 to 1000 nM | STAT6 HiBiT degradation Dmax % 24 h [3]: B (B (>70-90%)) | DC50 [3]: 10 to 100 nM

Cc1c(N2CCC(c3ccc(-c4cc(C5=CCCN(C(=O)CCn6cccn6)C5)c(F)c5[nH]c(C(=O)N(C)C)cc45)cc3)CC2)cnc(C2CCC(=O)NC2=O)c1F (stereo not shown)
IC50 [2]: < 100 nM | STAT6 HiBiT degradation Dmax % 24 h [3]: A (A (>90%)) | DC50 [3]: < 1 nM

CN(C)C(=O)c1cc(-c2ccc(N3C[C@H]4CN(c5ccc(C6CCC(=O)NC6=O)cc5F)[C@H]4C3)c(F)c2)c2c(c1)cc(C1=CCCN(C(=O)CCn3ccnn3)C1)n2CC1CC1 (stereo partly shown)
IC50 [2]: < 100 nM | STAT6 HiBiT degradation Dmax % 24 h [3]: B (B (>70-90%)) | DC50 [3]: 1 to 10 nM

CN(C)C(=O)c1cc(-c2ccc(C3CCN(c4ccc(C5CCC(=O)NC5=O)c(F)c4)CC3)c(F)c2)c2c(c1)cc(C1=CCCN(C(=O)CCn3ccnn3)C1)n2CC1CC1 (stereo not shown)
IC50 [2]: < 100 nM | STAT6 HiBiT degradation Dmax % 24 h [3]: A (A (>90%)) | DC50 [3]: < 1 nM

CN(C)C(=O)c1cc2c(-c3ccc(N4CCN(C5CCN(c6ncc(C7CCC(=O)NC7=O)cc6F)CC5)CC4)c(F)c3F)cc(C3=CCCN(C(=O)CCn4cccn4)C3)c(F)c2[nH]1 (stereo not shown)
IC50 [2]: < 100 nM | STAT6 HiBiT degradation Dmax % 24 h [3]: A (A (>90%)) | DC50 [3]: < 1 nM

CN(C)C(=O)c1cc2c(-c3ccc([C@H]4CCN(C5CCN(c6ncc(C7CCC(=O)NC7=O)cc6F)CC5)CC4(F)F)c(F)c3F)cc(C3=CCCN(C(=O)CCn4cccn4)C3)c(F)c2[nH]1 (stereo partly shown)
IC50 [2]: < 100 nM | STAT6 HiBiT degradation Dmax % 24 h [3]: A (A (>90%)) | DC50 [3]: < 1 nM

CN(C)C(=O)c1cc2c(-c3ccc(C4CCN(C5CCN(c6ncc(C7CCC(=O)NC7=O)cc6F)CC5)CC4)c(F)c3F)cc(C3=CCCN(C(=O)CCn4cccn4)C3)c(F)c2[nH]1 (stereo not shown)
IC50 [2]: < 100 nM | STAT6 HiBiT degradation Dmax % 24 h [3]: A (A (>90%)) | DC50 [3]: < 1 nM

CN(C)C(=O)c1cc(-c2ccc(N3C[C@@H]4CN(c5ccc(C6CCC(=O)NC6=O)cc5F)[C@@H]4C3)c(F)c2)c2c(c1)cc(C1=CCCN(C(=O)CCn3ccnn3)C1)n2CC1CC1 (stereo partly shown)
IC50 [2]: < 100 nM | STAT6 HiBiT degradation Dmax % 24 h [3]: A (A (>90%)) | DC50 [3]: < 1 nM

CCN(C)C(=O)c1cc2c(-c3ccc(C4CCN(c5cccc6c5C(C)(C)C(=O)N6C5CCC(=O)NC5=O)CC4)cc3C)cc(C3=CCCN(C(=O)CCn4ccnn4)C3)c(F)c2[nH]1 (stereo not shown)
IC50 [2]: 100 to 1000 nM | STAT6 HiBiT degradation Dmax % 24 h [3]: A (A (>90%)) | DC50 [3]: < 1 nM
